Source: US6413978B1, “Basic derivatives of benz[e] isoindol-1-ones and pyrrolo[3,4-c] quinolin-1-ones with 5-HT3-antagonistic activity, their preparation and their therapeutic use” (Rotta Research Laboratorium S.p.A., priority 1998, dated 2002)

The chains behind the UniProt entries cited, without tags or fusion partners. Residues count along the entry.
UniProt P35563, 24-483: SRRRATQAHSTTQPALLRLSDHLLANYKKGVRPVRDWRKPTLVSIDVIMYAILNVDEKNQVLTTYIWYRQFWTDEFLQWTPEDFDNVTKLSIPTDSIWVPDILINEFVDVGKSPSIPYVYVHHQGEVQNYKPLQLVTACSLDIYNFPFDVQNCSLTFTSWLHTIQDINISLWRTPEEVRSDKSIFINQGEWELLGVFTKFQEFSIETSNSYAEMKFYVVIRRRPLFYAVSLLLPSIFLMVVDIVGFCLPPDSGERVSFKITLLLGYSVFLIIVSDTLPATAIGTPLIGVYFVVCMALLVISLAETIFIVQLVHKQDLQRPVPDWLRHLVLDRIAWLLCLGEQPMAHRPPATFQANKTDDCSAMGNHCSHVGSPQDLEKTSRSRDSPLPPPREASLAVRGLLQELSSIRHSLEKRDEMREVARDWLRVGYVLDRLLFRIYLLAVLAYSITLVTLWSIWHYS
UniProt P19327, whole entry: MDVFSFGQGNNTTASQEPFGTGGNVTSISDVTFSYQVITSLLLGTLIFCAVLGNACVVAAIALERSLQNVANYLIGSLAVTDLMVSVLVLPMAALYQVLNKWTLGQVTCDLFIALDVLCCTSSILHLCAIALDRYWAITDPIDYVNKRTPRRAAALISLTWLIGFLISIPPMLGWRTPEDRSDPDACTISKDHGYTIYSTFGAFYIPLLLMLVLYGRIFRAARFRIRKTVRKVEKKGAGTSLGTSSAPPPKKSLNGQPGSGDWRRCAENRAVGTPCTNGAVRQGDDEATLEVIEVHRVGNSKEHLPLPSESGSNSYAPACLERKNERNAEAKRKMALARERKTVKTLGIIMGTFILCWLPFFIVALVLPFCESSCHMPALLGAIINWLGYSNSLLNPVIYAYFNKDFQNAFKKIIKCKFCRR

Tests used:
5-HT3 receptors = biological target: T1, 5-HT3 receptors (Rattus norvegicus, UniProt P35563); assay: Affinity for the 5-HT3 receptors, [3H]-BRL43694 (Granisetron) binding
T1 construct: from tissue; host or cells: rat cortex and hippocampus
Experimental: a) Affinity for the 5-HT3 Receptors
The method of Nelson et al. (Biochem. Pharmacol. 1989, 38, 1693-95) was followed with slight modifications. Rat cortex and hippocampus were used to produce a pellet having a final concentration of 20 mg of tissue/sample. Specific activity of the tracer: 81 Ci/mmole; incubation time: 30 min; incubation temperature: 25° C.

5-HT1A receptors = biological target: T2, 5-HT1A receptors (Rattus norvegicus, UniProt P19327); assay: Affinity for the 5-HT1A receptors, [3H]-8-OH DPAT binding; settings: rat hippocampus; 10 min, 37° C.; IN (10^−6M) where no Ki is given; read-out: Ki ± SE, 5-HT1A Subtype ([3H]-8OH-DPAT)
T2 construct: from tissue; host or cells: rat hippocampus
Experimental: d) Affinity for the 5-HT1A Receptors
The method of Hall et al (J. Neurochem. 1985, 44, 1685-1696) was followed with slight modifications. Rat hippocampus was used to produce a pellet having a final concentration of 4 mg of tissue/sample. Specific activity of the tracer: 137 Ci/mmole; incubation time 10 min; incubation temperature: 37° C.

## NCCc1c[nH]c2ccc(O)cc12 [serotonin, reference compound]
5-HT3 receptors
  Ki: 118 ± 34 nM
5-HT1A receptors
  Ki: 7.3 nM
